## Binding of CDR-mutated scFvs to a peptide of the spike HR2 region

Source: Engelhart et al. 2022 (doi:10.1038/s41597-022-01779-4), MIT Lincoln Laboratory and A-Alpha Bio; data file from the FLAb repository.

The target is the same throughout: PDVDLGDISGINAS, from the HR2 region of SARS-CoV-2 spike.

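The starting antibody came from a phage panning campaign against this peptide. In library AAYL50, one, two or three CDR residues were substituted; doubles and triples were drawn at random. In AlphaSeq, yeast of one mating type display the scFv and yeast of the other type display the target. Binding brings cells together so that they mate, and sequencing counts the barcode pairs among the diploids. Each replicate has its own calibration line, from reference interactions of the BCL2 family. Each pool was mated in three replicate cultures.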

Ab-14 is the parent antibody, in scFv form: VH, then the linker GGGGSGGGGSGGGGS, then VL. The heavy chain is unchanged in all variants.
VH: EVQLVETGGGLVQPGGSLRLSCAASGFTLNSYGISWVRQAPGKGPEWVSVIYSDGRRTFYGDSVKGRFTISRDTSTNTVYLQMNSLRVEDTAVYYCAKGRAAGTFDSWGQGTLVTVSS
VL: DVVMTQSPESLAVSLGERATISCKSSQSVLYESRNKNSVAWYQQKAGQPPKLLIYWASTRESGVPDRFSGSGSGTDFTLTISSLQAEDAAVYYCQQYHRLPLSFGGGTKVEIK

Each variant is given by its three light chain CDRs, as the data file delimits them; those of the parent are KSSQSVLYESRNKNSVA, WASTRES, QQYHRLPLS.
Affinities are written as log10 Kd with Kd in nM; a lower number is a better binder.
A mean of the replicates is given; it leaves out those without a signal.
"not detected" marks a missing value. The strain was present, yet no cells mated with the target were sequenced in any replicate, which points to weak or no binding.
Nonspecific signal, from three strains lacking the peptide, appeared in 18% of pairings of library AAYL50, centred on 4.19 (5% of these signals below 2.99); values are not corrected for it. Also given: how often the same scFv was detected with the empty control strains.

mean log10 Kd (nM)	detected	signal with controls	CDR-L1	CDR-L2	CDR-L3
1.37	3/3	1/9	KSSQPVLYESRNKNSVA	WTSTRES	QQYHRLQLS
5.73	2/3	6/9	KSSQSVLYEERNKNSVA	WAITRES	QQYHRLPLS
2.24	3/3	0/9	KSSQSVLYESRNACSVA	WAYTRES	QQYHRLPLS
not detected	0/3	2/9	KWSQSLLYESRNKNSWA	WASTRES	QQYHRLPLS
4.40	2/3	5/9	KSSQSVLYESWNKNSHA	WASTRES	QQYHPLPLS
4.39	3/3	3/9	KSSQSVLYESRRKNSVA	WASTRES	QQYHRLPLC
not detected	0/3	0/9	KSSQSVLYEIRNINSVA	WASTRES	QNYHRLPLS
0.16	3/3	2/9	KSSQSVVYESTNKNSVA	QASTRES	QQYHRLPLS
3.98	2/3	1/9	KSSQSKLYESRNKNSVA	WASTRES	QQYKRLYLS
4.46	1/3	3/9	KSSQSVLYESRNKNSVA	WASGRES	QQYHALQLS
not detected	0/3	1/9	LSSQSVLYESRNKQSLA	WASTRES	QQYHRLPLS
not detected	0/3	2/9	KSSQSVLYESRNKNSVA	WPYTRES	QQYHRLHLS
not detected	0/3	2/9	KSSQSVLYESRNKNSVA	YASTRES	QQYHRLPYS
not detected	0/3	0/9	KSSQSVLYESRNKNSVA	WASWRES	QQYVRLPVS
2.68	1/3	0/9	KSSGSVLYESRNKNSVA	WASTRES	DQYHRLPLS
4.82	2/3	3/9	KSSQSVLYESRNKNSVT	WASSRES	QQYHFLPLS
5.15	1/3	1/9	KSSQSVLYESRNKNSCA	WASTRES	QQYQRLPES
3.91	3/3	1/9	KSSISVLYESRNKNCVA	WASTRES	QQYHRLPFS
5.20	2/3	4/9	KSSQSVLYESRNKNSGA	WAPTRES	QCYHRLPLS
-0.26	3/3	0/9	KSSQSFLYPSRNKNSVA	EASTRES	QQYHRLPLS
1.23	3/3	2/9	KSSQSVLYESRNKNSVA	WASTREA	QQYHRLHLS
3.42	3/3	6/9	KCSRSVLYESRNKNSVA	WASSRES	QQYHRLPLS
4.35	2/3	2/9	KSSQSVLYESRNKNPVA	WASWRGS	QQYHRLPLS
not detected	0/3	0/9	KSSQSVLYESRNKLSVA	WASTRES	AQQHRLPLS
3.62	3/3	3/9	KSSQSVLYECRNKNSVA	WASTRES	QQVCRLPLS
1.28	3/3	0/9	KSIQSVLYESRNKNSVA	WGSTRES	QQYHRFPLS
not detected	0/3	1/9	KSMQSVSYESRNKNSVA	WASTRES	QQYHRLPHS
3.26	1/3	0/9	KSSQSVLYESRNKNTVA	WASVRES	QQYHDLPLS
2.99	3/3	0/9	KRGQSVLYESRNKNSVA	WASTRES	QSYHRLPLS
4.14	1/3	3/9	KSSQSVLYECRNKNSVA	WASTRES	QQYHRLELA
3.47	3/3	1/9	KSSKSVLYESRNKNSVA	WAVTRES	QQYIRLPLS
1.94	3/3	2/9	KSSQQVLYESRNKNSVA	WASRRET	QQYHRLPLS
2.24	3/3	2/9	KSNQSVLYESRPKNSVA	WASTREH	QQYHRLPLS
5.16	1/3	2/9	KSSQSSLYESRNKNSVP	WYSTRES	QQYHRLPLS
4.50	2/3	2/9	KSSQSVLYESRNKNSVA	WAATKES	QQYHRLELS
1.91	3/3	1/9	KSSQEVLYESRCVNSVA	WASTRES	QQYHRLPLS
4.75	2/3	1/9	KSSQSVLYESRVKNEVA	WASTNES	QQYHRLPLS
4.16	2/3	4/9	KSSQSVLYESRNKNSCA	WASTRES	IQYHRLPLS
3.06	1/3	0/9	KSSQTVLYESRNKNSVA	WASMRES	IQYHRLPLS
3.46	1/3	0/9	KSSQSVLYESRNKNSVA	WASTRES	QQYHYLPWS
4.55	2/3	2/9	KSSQSVLYESRNKNSFA	WASTEHS	QQYHRLPLS
1.05	3/3	2/9	KSSQSVSYESRNKNSVA	WASTRES	QQYERLPLS
1.26	3/3	1/9	KSSQSVLYPSRNKNSVA	WASTRES	QQYRQLPLS
3.98	1/3	1/9	KSSQSVLYESRNKNSVH	WASTRES	AQYWRLPLS
1.22	3/3	0/9	QSSQQVLYESRNKNSVA	WASTRES	QQYHRLPLS
0.66	3/3	3/9	KSSQSVLYDSRNKNSVA	WASTRES	QQYHRLALS
not detected	0/3	0/9	KSSQSVLYEKRNKNSYA	WASTRES	QQYHRLPVS
not detected	0/3	2/9	KSSQSVLYESRNKNSPA	WASTRES	QQYHTLPLL
2.53	1/3	0/9	DSSQSVLYWSRNKNDVA	WASTRES	QQYHRLPLS
1.21	3/3	1/9	KPWQSVLYESRNKNSVA	YASTRES	QQYHRLPLS
2.08	3/3	0/9	ASSQSHLYESRNKNSVA	WASTRES	QQYHRLPLS
1.28	3/3	0/9	KSSQSVLYESLNKRSVA	WASTRLS	QQYHRLPLS
not detected	0/3	0/9	KSSQSVLYEVRNKKSVA	WASTRES	QQYHRLCLS
4.28	1/3	1/9	KSSQSVLYECRNKNSVA	WASTRES	QQYHRTPKS
1.11	3/3	0/9	KSSQSVLFWERNKNSVA	WASTRES	QQYHRLPLS
not detected	0/3	0/9	KSSQSVLYESRNKNSVA	WASPRES	QQYHRLQLW
not detected	0/3	1/9	KSSMSVLYESRNKNSNA	WASTRES	WQYHRLPLS
not detected	0/3	2/9	KSSQSVLYESRYKNSVY	WASTRES	QQSHRLPLS
0.88	3/3	4/9	KSSQSVLYPSRNWNSVA	WASTRES	QQYHRLPLS
0.80	3/3	3/9	KSSQSHLYESRNKNSVA	WASTRES	QDYHRLPLS
2.43	2/3	1/9	KSQPSVLYESRNKNSVA	WASQRES	QQYHRLPLS
0.07	3/3	2/9	KLSQSVYYESRYKNSVA	WASTRES	QQYHRLPLS
0.79	3/3	1/9	KSSQSQLYESRNSNSVA	WASTRES	QQYHSLPLS
0.82	3/3	2/9	KSVQSVLPESANKNSVA	WASTRES	QQYHRLPLS
not detected	0/3	1/9	KSSQSVLYEYRMKNSVM	WASTRES	QQYHRLPLS
4.95	2/3	2/9	KSSQSVLYESRNKNSGA	WNSLRES	QQYHRLPLS
4.43	1/3	0/9	KSSQSVLYESRNKNSRA	WASTRES	QQSHRLPLS
1.77	3/3	3/9	KSSQSVLYEIRNKNSVA	WASQREQ	QQYHRLPLS
not detected	0/3	0/9	KSSQSVLYNSRNKNSVA	WASTWES	FQYHRLPLS
1.29	3/3	1/9	KSSQSVLYESRNKESVA	WASTRES	QQYNRLPLM
1.19	3/3	2/9	KSSQSMLYELRNKNSVA	WASTRES	QQDHRLPLS
4.10	1/3	3/9	KSSQSVLYESRNKNSFA	WANTRES	QQYHRLPPS
4.75	1/3	4/9	KSSQSVLYESRMKNSVS	WASTRES	QQYRRLPLS
4.16	2/3	5/9	KSSQSVLYESRNKSSVM	WASTRES	QQYHRFPLS
4.19	2/3	2/9	KSSQSCLYESRNKHSVA	WASTRES	QQYHRLPLD
1.70	3/3	6/9	KSSQSVLYESRNKNSVA	WASTRAS	QHYHRLPLH
5.06	2/3	5/9	KSSQSVLFESRNKNSVT	WASTRES	QQYHRLTLS
3.10	1/3	2/9	KSSMSVLYESRNKQSVA	WASTRES	QQMHRLPLS
not detected	0/3	1/9	KSSQSVLYESKNKNSVA	WASTRES	QQYHRLPPS

From the list, the first 4 with no signal in any replicate:

CDR-L1	CDR-L2	CDR-L3	mean log10 Kd (nM)	detected	signal with controls
KWSQSLLYESRNKNSWA	WASTRES	QQYHRLPLS	not detected	0/3	2/9
KSSQSVLYEIRNINSVA	WASTRES	QNYHRLPLS	not detected	0/3	0/9
LSSQSVLYESRNKQSLA	WASTRES	QQYHRLPLS	not detected	0/3	1/9
KSSQSVLYESRNKNSVA	WPYTRES	QQYHRLHLS	not detected	0/3	2/9